Reference: article PMC13429874, “ABHD2 activity is not required for the non-genomic action of progesterone on human sperm” (Human Reproduction (Oxford, England), 2026)

Key:
ABHD2^L33–E425 = ABHD2^L33–E425 (Homo sapiens, UniProt P08910); assay: ABHD2^L33-E425 fluorometric enzymatic activity assay with 7-HCA substrate; assay type: biochemical; conditions: read-out: IC50, ABHD2^L33-E425, 7-HCA
[1] = biological target: T1, full-length human ABHD2 (ABHD2^FL) (Homo sapiens, UniProt P08910); assay: ABHD2^FL enzymatic activity assay with resorufin butyrate (RB) substrate; assay type: biochemical; conditions: read-out: IC50, ABHD2^FL, RB assay; 15 µM RB
[2] = biological target: T1, full-length human ABHD2 (ABHD2^FL); assay: ABHD2^FL enzymatic activity assay with 7-HCA substrate; assay type: biochemical; conditions: read-out: IC50, ABHD2^FL, 7-HCA assay; 5 µM 7-HCA
human sperm = conditions: progesterone-induced; ref Miller et al. (2016); cited from earlier work
CatSper = conditions: ref Miller et al. (2016); cited from earlier work

methyl arachidonyl fluorophosphonate gave an IC50 (ABHD2^L33–E425) of 4.6 nM, an IC50 [1] of 44 nM and an IC50 [2] of 51 nM. The sperm hyperactivation (human sperm) was “suppress” and the “progesterone-induced CatSper activation, Ca2+ influx” value (CatSper) was “suppress”.
